Columns and labels:
Prothrombin [1] = target: T1, Prothrombin (Homo sapiens, UniProt P00734)
Prothrombin [2] = target: T1, Prothrombin; experiment: In vitro inhibition of thrombin catalytic activity using s-2238 substrate at 10 uM was measured at […] after 3 min incubation with compound; format: functional

Compound `N=C(N)NCCCCCCC(=O)NC[C@@H]1CCCN1C(=O)[C@H](CO)NS(=O)(=O)c1ccc2ccccc2c1` has an IC50 (Prothrombin [1]) of 14 µM.
With `C[C@@H]1CCN(C(=O)CNS(=O)(=O)c2ccc3ccccc3c2)[C@@H](C(=O)NCCCCN=C(N)N)C1` the IC50 (Prothrombin [1]) was 27 µM.
`CC1CNc2c(cccc2S(=O)(=O)N[C@@H](CCCNC(=N)N)C(=O)N2CC[C@@H](C)CC2C(=O)O)C1` (single isomer, unassigned) [ARGATROBAN] gave an IC50 (Prothrombin [2]) of 0.038 µM.

Reference: ChEMBL document CHEMBL1135091, “Thrombin active site inhibitors: chemical synthesis, in vitro and in vivo pharmacological profile of a novel and selective agent BMS-189090 and analogues” (Bioorg Med Chem Lett, 2002)
